{
  "source": "ChEMBL document CHEMBL3596145",
  "about": "“Structure and inhibition studies of a type II beta-carbonic anhydrase psCA3 from Pseudomonas aeruginosa” (Bioorg Med Chem, 2015)",
  "target": "T1, Carbonic anhydrase (Pseudomonas aeruginosa (strain ATCC 15692 / PAO1 / 1C / PRS 101 / LMG12228), UniProt Q9HVB9)",
  "T1 sequence (Q9HVB9 whole entry)": "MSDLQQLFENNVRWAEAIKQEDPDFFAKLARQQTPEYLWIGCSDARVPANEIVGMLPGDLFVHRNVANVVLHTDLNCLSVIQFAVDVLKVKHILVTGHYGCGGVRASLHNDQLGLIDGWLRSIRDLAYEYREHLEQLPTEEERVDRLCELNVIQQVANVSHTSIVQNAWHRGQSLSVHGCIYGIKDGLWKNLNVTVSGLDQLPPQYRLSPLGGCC",
  "assay": "biochemical",
  "format": "cell-based, BL21-DE3",
  "data": [
    {"smiles": "O=P(O)(O)OP(=O)(O)O", "note": "[SODIUM PYROPHOSPHATE]", "values": [
      {"measurement": "Ki", "value": 8.2, "unit": "mM"}
    ]}
  ]
}
